Consider 1 molecule from paper PMC10001230, “A Role for the V0 Sector of the V-ATPase in Neuroexocytosis: Exogenous V0d Blocks Complexin and SNARE Interactions with V0c” (Cells, 2023).

For the test, the target named is T1, His6-T7-HSV tagged full-length V0c-subunit (rat, UniProt P63081).
T1 construct: V-ATPase V0 sector subunit c (V0c), full length; also called HSV-V0c; 6His-V0c; source: E. coli OverExpress C43(DE3), membranes solubilized in 2% FosCholine-12, purified (Ni-NTA)
The test can be described thus: ELISA; competition: His-VAMP2 immobilized; V0c 20 nM alone or with t-SNARE dimer (1 µM), complexin (0.2 µM) or both; with 1 µM GST or GST-V0d1; detected with anti-HSV. The settings on record: both partners purified.

B1: His6-tagged Vamp ([…]) (domain or fragment)
chain: not shown
notes: VAMP2/synaptobrevin 2 without the transmembrane domain, […]; also called VAMP2; His-VAMP2; source: E. coli BL21, purified; also co-expressed in BL21 with SNAP25 and syntaxin 1 (1-265)
For B1, the binding result is “binds”.
